Test results published in US5814666A, “Encapsulated and non-encapsulated nitric oxide generators used as antimicrobial agents” (The United States as represented by the Department of …, priority 1995, dated 1998).

Key:
[1] = system: P. falciparum clone CDC/Indochina III (W2); assay: Anti-malaria in vitro screen, P. falciparum clone W2; details: in words
[2] = system: P. falciparum clone CDC/Sierra Leone I (D6); assay: Anti-malaria in vitro screen, P. falciparum clone D6; details: in words

Compound	relative potency in W2 [1]	relative potency in D6 [2]
NCCN(CCN)[N+]([O-])=NO [DETA/NO]	substantially more potent than SPER/NO and acetoxy-DEA/NO in W2	–
CCN(CC)[N+]([O-])=NOCOC(C)=O [acetoxy-DEA/NO]	–	substantially more potent than SPER/NO and DETA/NO in D6
